Values quoted from earlier work, collected in patent US5744476A, “Dopamine D1 agonists for the treatment of dementia” (Interneuron Pharmaceuticals, Inc., priority 1994, dated 1998).

Tests used:
cortical ACh release = details: in vivo; cited from earlier work
[1] = system: choice accuracy deficits (CADS) due to scopolamine; details: in vivo; cited from earlier work

CCCN1CCC[C@@H]2Cc3n[nH]cc3C[C@H]21 [quinpirole]
cortical ACh release (cortical ACh release): no effect
choice accuracy deficits due to scopolamine [1]: but not quinpirole, alleviated choice accuracy deficits (CADS) due to scopolamine
